Yeast mating assay B: variants of the scFv Ab-14

From the AlphaSeq antibody data of Li et al. 2023 (doi:10.1038/s41467-023-39022-2), copy in the FLAb collection.

Target peptide (SARS-CoV-2 spike, HR2 region): PDVDLGDISGINAS

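The parent was found by panning a naive human phage display library on the peptide. Designed CDR sequences, proposed from the first random library and measured here. Several design methods are mixed in this list. AlphaSeq pools MATa yeast showing the antibodies with MATalpha yeast showing the peptide. Mating (16 h, 30 °C) was followed by selection of diploids and sequencing of their barcodes. A regression on co-assayed BCL2-family reference pairs converts the normalised counts of each replicate to an apparent Kd. Mating was done six times.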

Parent scFv Ab-14: VH joined to VL by three GGGGS repeats. Changes lie in the heavy chain CDRs alone.
VH: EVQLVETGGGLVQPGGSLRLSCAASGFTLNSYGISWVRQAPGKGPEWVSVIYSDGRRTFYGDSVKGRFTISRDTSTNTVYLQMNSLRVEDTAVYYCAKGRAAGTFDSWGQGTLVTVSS
VL: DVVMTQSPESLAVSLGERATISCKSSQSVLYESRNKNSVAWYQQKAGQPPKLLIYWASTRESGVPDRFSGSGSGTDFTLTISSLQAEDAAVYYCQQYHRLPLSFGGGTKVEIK

The parent's heavy chain CDRs are GFTLNSYGIS, VIYSDGRRTFYGDSVK, GRAAGTFDS; each variant's own CDRs replace them letter for letter. Values are log10 of the apparent Kd in nM; lower means stronger binding. A mean of the replicates is given; it leaves out those without a signal. Where no diploid with the target was found in any replicate, the entry reads "not detected": below detection, most likely a poor binder, though not proof of it. Nonspecific signal, from three strains lacking the peptide, appeared in 1% of pairings of all heavy chain designs, centred on 2.08 (5% of these signals below 0.84); values are not corrected for it. For each scFv, signals with the empty controls are counted beside the result.

| CDR-H1 | CDR-H2 | CDR-H3 | log10 Kd (nM), mean | replicates with signal | signal with controls |
|---|---|---|---|---|---|
| GFTLNEYGIS | VIYSDGRRTFYGDSVK | GRAAGSFRT | 1.54 | 1 of 6 | 1 of 18 |
| GFDLNEYGIS | VIYSDGLRTFYGDSVK | GRAAGTFDS | -0.08 | 6 of 6 | 0 of 18 |
| GFDLNEYGIS | VIYADGRRTFYTDSVK | GQTAGTFDS | -0.57 | 6 of 6 | 0 of 18 |
| GFELNSYGIS | VIYADGRRTFYGDSVK | GRNAGTFDS | not detected | 0 of 6 | 0 of 18 |
| GFTLNSYGIS | VIYSDGRRTFYDDSVK | GAAAGTFDS | 1.51 | 6 of 6 | 0 of 18 |
| GFSLDEYGIS | VIYADGRRTFYQDDVK | GNVAGTFDV | not detected | 0 of 6 | 0 of 18 |
| GFDIEEYGIS | VIYADGLRTMVQNSVK | GELGQKFIV | not detected | 0 of 6 | 0 of 18 |
| GFELNSYGIS | VIYSDGQRTFYVDSVK | GRQAGTFDS | 1.23 | 6 of 6 | 0 of 18 |
| GFTLNEYGIS | VIYSDGRRTFYTDSVK | GREAGTFDS | 0.03 | 6 of 6 | 1 of 18 |
| GKGLDEYGVS | VIYADGVRKSYADDVK | GGIAGTFLY | 2.25 | 6 of 6 | 2 of 18 |
| GFTLNSYGIS | VIYSDGRRTFYGDSVK | GVAAGTFKS | not detected | 0 of 6 | 1 of 18 |
| GFDLNEYGIS | VIYADGRRTFYSDSVK | GHNAGTFIQ | not detected | 0 of 6 | 0 of 18 |
| GFDLNEYGIS | VIYADGRRTFYADSVK | GEVAGTFIQ | -0.05 | 6 of 6 | 0 of 18 |
| GFSLNSYGIS | VIYSDGRRTFYGDSVK | GQNAGTFDS | 0.47 | 6 of 6 | 0 of 18 |
| GFDLNEYGIS | VIYADGRRTAYADDVK | GNVAGTFDV | -0.29 | 6 of 6 | 0 of 18 |
| GFDLNEYGIS | VIYADGRRTFYSDSVK | GNAGGTFDM | 1.70 | 6 of 6 | 1 of 18 |
| GFDLDEYGIS | VIYADGMRTFYSDSVK | GENAGTFDV | -0.31 | 6 of 6 | 0 of 18 |
| GDNLEEYGIS | VIYADGFRTHYAEKVK | GQQAGFFIK | not detected | 0 of 6 | 0 of 18 |
| GFQLNEYGIS | VIYSDGRRTFYTDSVK | GRFAGTFDS | 0.55 | 6 of 6 | 0 of 18 |
| GFVLNCYGIS | VIYQDGRRTIYGDSVK | ERAALTFIS | not detected | 0 of 6 | 0 of 18 |
| GFDLNEYGVS | VIYADGSRSAYTSSVK | GVHNGDIMI | not detected | 0 of 6 | 0 of 18 |
| GFQLNDYGIS | VIYSDGRRTFYQDSVK | GRAAGTFIS | not detected | 0 of 6 | 0 of 18 |
| GFSLNQYGIS | VIYSDGRRTFYKDSVK | GRTAGTFDS | 0.28 | 6 of 6 | 0 of 18 |
| GFSLNSYGIS | VIYSDGRRTFYIDTVK | GNAAGTFDS | 0.25 | 6 of 6 | 1 of 18 |
| GFDIEDYGIS | VIYADGVRAMYKENFK | GQIAGTYLI | not detected | 0 of 6 | 0 of 18 |
| GFHLNSYGIS | VIYSDGRRTFYGDSVK | GRAAGTFDD | not detected | 0 of 6 | 0 of 18 |
| GFTLYDYGIS | VIYSDGCRTQYSDSVK | GRAAGTFDS | not detected | 0 of 6 | 0 of 18 |
| GFDLNEYGIS | VIYADGRRTAYSDSVK | GETAGFFDF | not detected | 0 of 6 | 0 of 18 |
| GFDLNEYGIS | VIYADGMRTAYADSVK | GEVAGTFDQ | -0.48 | 6 of 6 | 0 of 18 |
| GFTLNNYGIS | VPYSDGRRTFYGDKVK | GRAAGQFDS | not detected | 0 of 6 | 0 of 18 |
| GFELNSYGIS | VIYSDGRRTFYVDSVK | GRLAGTFDS | 1.46 | 4 of 6 | 0 of 18 |
| GFTLNEYGIS | VIYADGRRTFYGDSVK | GMAAGKFDS | not detected | 0 of 6 | 1 of 18 |
| DFTLNSYGGS | VIYSDGRRTIYLDSVK | GRAAGTFDL | not detected | 0 of 6 | 0 of 18 |
| GFDLNSYGIS | VIYSDGRRTFYDDSVK | GRAAVTFDS | 1.72 | 1 of 6 | 0 of 18 |
| GFDLDEYGIS | VIYADGMRTAYSDSVK | GQVAGTFDT | -0.38 | 6 of 6 | 1 of 18 |
| GFTMNSYGIS | VIYSDGRRTFYGDSVK | GNAAGTFDS | 2.66 | 2 of 6 | 0 of 18 |
| GFDLNEYGIS | VIYADGMRTAYSDSVK | GTVAGTFDQ | -0.91 | 5 of 6 | 0 of 18 |

The remaining entries, values ahead:

| log10 Kd (nM), mean | replicates with signal | signal with controls | CDR-H1 | CDR-H2 | CDR-H3 |
|---|---|---|---|---|---|
| 0.22 | 6 of 6 | 0 of 18 | GFELNQYGIS | VIYSDGRRTFYSDSVK | GRQAGTFDS |
| 0.33 | 6 of 6 | 1 of 18 | GFSLNSYGIS | VIYSDGRRTFYADSVK | GRMAGTFDS |
| 0.90 | 4 of 6 | 0 of 18 | GFDLNSYGIS | VIYSDGRRTFYGDKVK | GKTAGTFDS |
| -0.34 | 6 of 6 | 0 of 18 | GFDLNEYGIS | VIYADGRRTFYADSVK | GSNAGTFDV |
| not detected | 0 of 6 | 0 of 18 | GFELNSYGIS | VIYSDGRRTFYGDHVK | GKTAGTFDS |
| not detected | 0 of 6 | 0 of 18 | GFSIDEYGIS | VIYADGTRTAYHDDVK | GAYDIVAVL |
| 0.76 | 6 of 6 | 0 of 18 | GFTLADYGIS | VIYSDGRRTAYGDSVK | GRAAGTFDS |
| 0.42 | 6 of 6 | 0 of 18 | GFDLNSYGIS | VIYSDGRRTFYGDSVK | GRTAGTFDT |
| -0.48 | 6 of 6 | 0 of 18 | GFNLNSYGIS | VIYSDGRRTFYDDSVK | GQEAGTFDS |
| not detected | 0 of 6 | 0 of 18 | GFDIQEYGIS | VIYADGQRAYYSDAVK | GNIGAIFSD |
| not detected | 0 of 6 | 0 of 18 | GFTLNQYGIS | VIYSDGRRTFYSDSVK | GRAAGFNDS |
| -1.16 | 6 of 6 | 0 of 18 | GFDLDEYGIS | VIYADGKRTAYIDSVK | GQNAGTFDV |
| 0.58 | 6 of 6 | 0 of 18 | GFDLNSYGIS | VIYSDGRRTFYGDAVK | GRAAGTFDI |
| 1.31 | 5 of 6 | 0 of 18 | GFTLNSYGIS | VIYSDGRRTFYSDAVK | GRAAGTFDL |
| 0.01 | 5 of 6 | 0 of 18 | GFTLDSYGIS | VIYSDGRRTFYTDSVK | GREAGTFDL |
| not detected | 0 of 6 | 0 of 18 | GFTLNSYGIS | VIYRDGRRTFYSDSVK | GRAALTFDS |
| 1.01 | 6 of 6 | 0 of 18 | GFTLNSYGIS | VIYSDGRRTFYGDSVK | GQEAGTFDL |
| 0.81 | 6 of 6 | 0 of 18 | GFELNSYGIS | VIYSDGRRTFYTDSVK | GRTAGTFDS |
| -0.32 | 6 of 6 | 0 of 18 | GFDLDEYGIS | VIYADGMRQAYADSVK | GNVAGTFDL |
| 0.77 | 1 of 6 | 0 of 18 | GFTLNEYGIS | VIYSDGRRTFYYDSVK | GRQAGTFDS |
| -0.28 | 6 of 6 | 0 of 18 | GFDLNEYGIS | VIYADGKRTFYADSVK | GNVAGTFIQ |
| 1.16 | 4 of 6 | 0 of 18 | GFSLNSYGIS | VIYSDGRRTFYVDDVK | GRNAGTFDS |
| 0.71 | 6 of 6 | 1 of 18 | GFSLNEYGIS | VIYSDGRRTFYGDSVK | GGAAGTFDR |
| -0.24 | 6 of 6 | 0 of 18 | GFDLDEYGIS | VIYADGMRTFYADSVK | GNIAGTFLI |
| -0.43 | 6 of 6 | 0 of 18 | GFSLNSYGIS | VIYSDGRRTFYVDDVK | GSAAGTFDS |
| -0.03 | 6 of 6 | 0 of 18 | GFDLNEYGIS | VIYADGLRTAYTDSVK | GEFAGTFDS |
| 0.67 | 6 of 6 | 1 of 18 | GFTLNSYGIS | VIYADGRRTFYGDSVK | GKAAGTFDR |
| 1.14 | 6 of 6 | 0 of 18 | GFNLNEYGIS | VIYADGRRTFYADSVK | GGYAGTFDV |
| 0.72 | 6 of 6 | 0 of 18 | GFSLNSYGIS | VIYSDGRRTFYADKVK | GRAAGTFDS |
| not detected | 0 of 6 | 0 of 18 | GFDLNEYGIS | VIYADGRRTQYIDSVK | GEQAGTFDA |
| -1.10 | 6 of 6 | 0 of 18 | GFDLNEYGIS | VIYADGRRTAYADSVK | GTNAGTFDQ |
| -0.73 | 6 of 6 | 0 of 18 | GFDLDEYGIS | VIYADGMRTFYQDSVK | GNVAGTFDV |
| -0.09 | 6 of 6 | 0 of 18 | GFDLNEYGIS | VIYADGVRTFYSDSVK | GQLAGTFDS |
| 0.47 | 6 of 6 | 0 of 18 | GFELDEYGIS | VIYADGIRRQYADNVK | GETADAFDM |
| not detected | 0 of 6 | 0 of 18 | GFTLNSYGIS | VIYSDGRRTFYGGSVK | GRAAGTFDS |
| 1.58 | 6 of 6 | 0 of 18 | GFLLNDYGIS | VIYSDGRRTFYADSVK | GRTAGTFDS |
| not detected | 0 of 6 | 0 of 18 | GFNLNEYGIS | VIYADGYRRAYANSVK | GYNMSLMVT |

For reference, 7 entries of the list once more:

{"CDR-H1": "GFTLNEYGIS", "CDR-H2": "VIYSDGRRTFYYDSVK", "CDR-H3": "GRQAGTFDS", "log10 Kd (nM), mean": "0.77", "replicates with signal": "1 of 6", "signal with controls": "0 of 18"}
{"CDR-H1": "GFTLNSYGIS", "CDR-H2": "VIYSDGRRTFYGDSVK", "CDR-H3": "GQEAGTFDL", "log10 Kd (nM), mean": "1.01", "replicates with signal": "6 of 6", "signal with controls": "0 of 18"}
{"CDR-H1": "GFTMNSYGIS", "CDR-H2": "VIYSDGRRTFYGDSVK", "CDR-H3": "GNAAGTFDS", "log10 Kd (nM), mean": "2.66", "replicates with signal": "2 of 6", "signal with controls": "0 of 18"}
{"CDR-H1": "GKGLDEYGVS", "CDR-H2": "VIYADGVRKSYADDVK", "CDR-H3": "GGIAGTFLY", "log10 Kd (nM), mean": "2.25", "replicates with signal": "6 of 6", "signal with controls": "2 of 18"}
{"CDR-H1": "GFHLNSYGIS", "CDR-H2": "VIYSDGRRTFYGDSVK", "CDR-H3": "GRAAGTFDD", "log10 Kd (nM), mean": "not detected", "replicates with signal": "0 of 6", "signal with controls": "0 of 18"}
{"CDR-H1": "GFELNSYGIS", "CDR-H2": "VIYSDGRRTFYGDHVK", "CDR-H3": "GKTAGTFDS", "log10 Kd (nM), mean": "not detected", "replicates with signal": "0 of 6", "signal with controls": "0 of 18"}
{"CDR-H1": "GFSLNQYGIS", "CDR-H2": "VIYSDGRRTFYKDSVK", "CDR-H3": "GRTAGTFDS", "log10 Kd (nM), mean": "0.28", "replicates with signal": "6 of 6", "signal with controls": "0 of 18"}

The parent sequence was in this pool as ten entries: three were never detected, three once, and four in most replicates, with averages from 0.34 to 2.37. In the paper, a design with two or fewer of six values counts as a poor binder. The range of this assay differs from that of the first round, and the authors advise against merging the two.